Source: article PMC8429170 (Cellular and Molecular Life Sciences: CMLS, 2021)

T1: GPR1-eYFP (human) (UniProt P46091)
T1 sequence: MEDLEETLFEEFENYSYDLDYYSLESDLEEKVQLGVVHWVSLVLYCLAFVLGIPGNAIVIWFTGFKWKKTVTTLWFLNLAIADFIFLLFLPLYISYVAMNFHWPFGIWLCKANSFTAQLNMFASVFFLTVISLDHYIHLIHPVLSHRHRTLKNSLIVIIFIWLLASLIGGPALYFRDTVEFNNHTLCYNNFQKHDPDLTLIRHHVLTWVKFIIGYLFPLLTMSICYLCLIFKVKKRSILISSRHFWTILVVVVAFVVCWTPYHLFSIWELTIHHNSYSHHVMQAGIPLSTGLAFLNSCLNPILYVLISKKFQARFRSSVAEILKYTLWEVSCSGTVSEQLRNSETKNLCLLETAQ

B1: ChemS157 (ligand)
chain: ELTEAQRRGLQVALEEFHKHPPVQWAFQETSVESAVDTPFPAGIFVRLEFKLQQTSCRKRDWKKPECKVRPNGRKRKCLACIKLGSEDKVLGRLVHCPIETQVLREAEEHQETQCLRVQRAGEDPHSFYFPGQFAFS
B2: ChemF156 (ligand)
chain: ELTEAQRRGLQVALEEFHKHPPVQWAFQETSVESAVDTPFPAGIFVRLEFKLQQTSCRKRDWKKPECKVRPNGRKRKCLACIKLGSEDKVLGRLVHCPIETQVLREAEEHQETQCLRVQRAGEDPHSFYFPGQFAF

Assays:
GPR1 = molecular target: T2, GPR1 (Homo sapiens, UniProt P46091); experiment: cell-based
T2 construct: expressed in transfected cells; host or cells: COS-7, transient
Method: Arrestin recruitment was characterized by measuring the bioluminescence resonance energy transfer (BRET) ratio between luciferase-tagged arrestin3 and either GPR1-eYFP or CMKLR1-eYFP as described previously. In brief, COS-7 cells in 75 cm^2 cell culture flasks were transiently transfected overnight with 7800 ng GPR1-eYFP or CMKLR1-eYFP in pVitro2 and 200 ng Rluc8-Arr3 in pcDNA3 using MetafectenePro according to the manufacturer’s protocol. […] For kinetic measurements, cells were stimulated with agonist in buffer or buffer alone, and fluorescence was measured for 20 min using a Tecan Infinite M 200 Reader (Tecan, Männerdorf, Switzerland) using the filter sets Green1 (YFP emission, luminescence 520–570 nm) and Blue1 (luciferase luminescence 370–480 nm). For concentration–response curves, cells were stimulated with agonist or blank, and luminescence was measured after 10 min. BRET signal was calculated as the ratio of fluorescence divided by luminescence, netBRET signal was calculated by subtracting the BRET signal of unstimulated wells from the respective samples.

GPR1-eYFP (human) = molecular target: T1, GPR1-eYFP (human)

Row | Molecule | EC50 (GPR1) | Emax (GPR1; COS-7) | EC50 of arrestin3 recruitment to GPR1-eYFP (BRET with Rluc8-Arr3, COS-7 cells) (GPR1-eYFP (human))
1 | CC(C)C[C@H](NC(=O)[C@H](C)NC(=O)[C@H](Cc1ccccc1)NC(=O)[C@H](CCC(N)=O)NC(=O)CNC(=O)[C@@H]1CCCN1C(=O)[C@H](Cc1ccccc1)NC(=O)[C@@H](N)Cc1ccc(O)cc1)C(=O)N[C@@H](CO)C(=O)O [[L^8]-chemerin-9] | 1.38 nM | 125 ± 12% | 
2 | C[C@@H]1NC(=O)[C@H](Cc2ccccc2)NC(=O)[C@H](CCC(N)=O)NC(=O)CNC(=O)[C@@H]2CCCN2C(=O)[C@H](Cc2ccccc2)NC(=O)[C@H](Cc2ccc(O)cc2)NC(=O)[C@H](CO)NC(=O)[C@H](Cc2ccccc2)NC1=O [[N–C]-c(chemerin-9)] | 132 nM |  | 
3 | C[C@H](NC(=O)[C@H](Cc1ccccc1)NC(=O)[C@H](CCC(N)=O)NC(=O)CNC(=O)[C@@H]1CCCN1)C(=O)N[C@@H](Cc1ccccc1)C(=O)N[C@@H](CO)C(=O)O [Chem^151−157] | > 1000 nM |  | 
4 | C[C@H](NC(=O)[C@@H]1CCCN1C(=O)[C@H](Cc1ccccc1)NC(=O)[C@H](Cc1ccccc1)NC(=O)[C@H](CO)NC(=O)[C@H](Cc1ccc(O)cc1)NC(=O)[C@H](Cc1ccccc1)NC(=O)[C@@H](N)CCC(N)=O)C(=O)NCC(=O)O [scr2C9] | > 1000 nM |  | 
5 | [L^8] chemerin-9 (peptide) |  |  | 1.4 nM
6 | B1 |  |  | 2.1 nM
7 | B2 |  |  | 2.6 nM
